Where two headings read alike, the source gives them in different places.
What was measured:
Assay in all cases: cell-based or functional assay
[1] = target: Pulmozyme (dornase alfa), mammalian (CHO) cell expressed recombinant human DNase I (human) (UniProt P24855)
[2] = target: plant-expressed recombinant human DNase I (human) (UniProt P24855)
[3] = target: Pulmozyme (dornase alfa), mammalian (CHO) cell expressed recombinant human DNase I (human) (UniProt P24855); remark: listed apart in the source
[4] = target: plant-expressed recombinant human DNase I (human) (UniProt P24855); remark: listed apart in the source

- IC50 (µg/ml) of actin for inhibition of DNase I catalytic activity, DNA-methyl green assay; row Pulmozyme [1]: 0.546 µg/mL
- IC50 (µg/ml) of actin for inhibition of DNase I catalytic activity, DNA-methyl green assay; row Prh DNase I batch 1 [2]: 1.71 µg/mL
- IC50 (µg/ml) of actin for inhibition of DNase I catalytic activity, DNA-methyl green assay; row Prh DNase I batch 2 [2]: 1.85 µg/mL
- IC50 (µg/ml) of actin for inhibition of DNase I catalytic activity, DNA-methyl green assay; row Pulmozyme [3]: 0.687 µg/mL
- IC50 (µg/ml) of actin for inhibition of DNase I catalytic activity, DNA-methyl green assay; row Prh DNase I [4]: 1.82 µg/mL
Substance: human non-muscle actin (Cytoskeleton; cat No. APHL99) (from UniProt P60709 2-375)

— US20150024050A1
